Values quoted from earlier work, collected in patent publication EP0986401B1, “P-SELECTIN TRANSLOCATION TO VASCULAR EPITHELIAL LUMEN BY IONIZING RADIATION” (ARCH DEVELOPMENT CORPORATION, priority 1997, dated 1998).

Target: T1, E-selectin (Homo sapiens, UniProt P16581)
T1 sequence (P16581 22-610): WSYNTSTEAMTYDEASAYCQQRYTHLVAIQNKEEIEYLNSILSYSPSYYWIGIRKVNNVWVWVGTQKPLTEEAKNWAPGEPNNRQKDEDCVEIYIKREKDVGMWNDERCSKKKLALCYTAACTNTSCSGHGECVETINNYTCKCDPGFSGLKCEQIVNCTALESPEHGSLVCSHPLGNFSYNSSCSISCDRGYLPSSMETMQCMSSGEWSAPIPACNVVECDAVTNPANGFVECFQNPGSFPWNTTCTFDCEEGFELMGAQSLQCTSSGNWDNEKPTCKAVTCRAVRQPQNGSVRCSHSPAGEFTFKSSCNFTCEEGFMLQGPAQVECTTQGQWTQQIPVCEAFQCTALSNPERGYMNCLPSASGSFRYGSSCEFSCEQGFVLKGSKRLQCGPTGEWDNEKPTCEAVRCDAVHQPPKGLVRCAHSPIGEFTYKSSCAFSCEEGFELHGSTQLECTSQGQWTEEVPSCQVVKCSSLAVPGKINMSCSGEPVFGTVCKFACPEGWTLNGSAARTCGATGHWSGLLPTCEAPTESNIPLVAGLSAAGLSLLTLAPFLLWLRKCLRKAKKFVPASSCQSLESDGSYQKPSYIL
Details: solution-phase; Nelson et al. (1993); cited from earlier work

Substance: Neu5Acα2-3Galβ1-4 [Fucα1-3]GlcNAc [sialyl Lewis X]
- blocker of E-selectin: more potent blocker
